Measurements as given in US7745390B2, “Antimicrobial peptides” (priority 2005, dated 2010).
Values after ≈ are worked out from the molar mass of the structure shown.

Legend:
[1] = test system: bacteria; assay: Activity in DMEM and RPMI media (lysis of bacteria); format: cell-based
Protocol: The CFU assay is the “gold standard” for evaluating antibiotics. Briefly, bacteria are grown overnight in rich medium, such as LB, and then diluted and grown in log phase for 2-4 hours. Cultures are set up as above, with the initial culture media being 10 mM phosphate buffer/0.03% LB; DMEM or RPMI; or DMEM or RPMI plus 10% serum (fetal calf, human, or mouse). After various periods of time, but generally 3 hours or less, aliquots are removed, diluted in LB at various dilutions, and plated on LB agar plates. Plates are incubated overnight at 37° C. and counted on an automatic colony counter.
In the column “Active in DMEM”, a blank means no activity. MAP stands for multiple antigenic peptide, where a number of identical peptide chains are synthesized and joined to a common core (like a dendrimer).
The peptides listed in Table 2 were tested in DMEM and RPMI, media that approximate blood and tissue conditions in vivo and those that were active under these conditions are listed in the last column (active in DMEM). […]
The hydrophobic moment is a measure of amphipathicity and indicates how well the hydrophobic residues fall on one side of the helix while the hydrophilic residues fall on the opposite side is shown in column 7. This was determined using the Membrane Explorer Program (http://blanco.biomol.uci.edu/mpex/). […]

[2] = Degree of helicity by circular dichroism; format: physicochemical; conditions: Table 4
Protocol: For designing analogues of the present sequences, as taught herein, the Table also presents data on the degree of helicity of the active peptides, as measured by circular dichroism. It should be noted that a number of the active peptides listed in the figure are not alpha helices at all. At least one peptide tested was considered to be a random coil, with no detectible secondary structure evident in the circular dichroism measurement.
The MIC values are for E. coli in 10 mM phosphate buffer. The peptides were derived by the inventors from granulysin helix 3. […] It contains an equal number of hydrophobic and positively charged amino acids, can adapt an αhelical structure, and is very amphipathic. In contrast, the remaining 3 peptides all retain activity in DMEM even in the presence of serum. These peptides contain more positive residues than hydrophobic residues. G12.21 contains 2 proline residues, G11.46 is based on a modification of the helix three sequence (RRVSRRFMRR) (SEQ ID NO: 91) with a 5 arginine extension at the NH2 terminus, and G14.15 includes loop 2/RRVSRRFMRR (SEQ ID NO: 91).

[3] = test system: B. cereus; format: cell-based; conditions: pH 7.2
Protocol: (§1) The experiments described above characterizing the activity of granulysin peptides G1-G18 relied on counting bacterial colonies on plates. This assay is quite labor intensive and would not allow evaluation of many different compounds on a number of different microbes. Therefore, we optimized an assay in which the entire procedure could be completed in a single microtiter well. Briefly, peptides are diluted in 10 mM phosphate buffer, pH 7.2 supplemented with 0.03% LB (J. Sambrook, D. W. Russell, Molecular Cloning: A Laboratory Manual (Cold Spring Harbor Laboratory Press, New York, ed. 3, 2001) pg. A2.2, Retrieved from http://openwetware.org/wiki/LB) and 25 μl is added to microtiter wells. Bacteria (25 μl) are added (˜5×10^6 colony forming units/ml) in the same buffer. After a 3-hour incubation at 37° C., 150 μl of LB is added and the plates are incubated overnight. The OD at 600 nm is read on an ELISA plate reader. The minimum inhibitory concentration (MIC) is the lowest concentration allowing no bacterial growth. The IC50 is the concentration of peptide that results in 50% growth compared to the medium.
(§2) We now describe additional peptides and their activity. The peptides have been designed, synthesized, and have been tested for lysis of E. coli and S. typhimurium (gram negative bacteria), B. cereus (gram positive bacterium). Results are shown in Table 2 along with the amino acid sequence of the peptide. Changes from the naturally occurring sequence are underlined. In general, the desired result is lysis of bacteria at low concentration (<1 μM).
(§3) In Table 2, Columns 2-7 are the MIC and IC50 (concentration required for 50% inhibition of growth) for each organism (E. coli, Salmonella, and B. cereus). The MIC (minimum inhibitory concentration) was determined as described above, in a multiwell plate assay. […] L-isomer amino acids are designated by capital letters while D-isomer amino acids are designated by lower case letters.

[4] = test system: E. coli DH5a; format: cell-based
Protocol: as §1, §2, §3

[5] = test system: Salmonella; format: cell-based, S. typhimurium; conditions: pH 7.2
Protocol: as §1, §2, §3

SMILES: CSCC[C@@H](NC(=O)[C@@H](Cc1ccccc1)NC(=O)[C@@H](CC(N)=O)NC(=O)[C@@H](CCCNC(=N)N)NC(=O)[C@@H](CO)NC(=O)[C@H](NC(=O)[C@@H](CC(=O)O)NC(=O)[C@@H](CCCNC(=N)N)NC(=O)[C@@H](Cc1c[nH]c2ccccc12)NC(=O)[C@@H](CCCNC(=N)N)NC(=O)[C@@H](CO)NC(=O)[C@@H](CCCNC(=N)N)NC(=O)CNC(=O)[C@H](NC(=O)[C@@H](CCCNC(=N)N)NC(=O)[C@@H](CO)NC(=O)[C@H](NC(=O)[C@@H](CCCNC(=N)N)NC(=O)[C@H](NC(=O)[C@@H](C)NC(=O)[C@@H](C)NC(=O)[C@@H](CC(N)=O)NC(=O)[C@@H](CO)NC(=O)[C@H](NC(=O)[C@@H](CO)NC(=O)[C@@H](CCCNC(=N)N)NC(=O)[C@H](N)CCC(N)=O)C(C)C)[C@H](C)O)C(C)C)[C@H](C)O)C(C)C)C(=O)N[C@H](CCCNC(=N)N)C(=O)N[C@H](CCCNC(=N)N)C(=O)O [Peptide G8.17, qrsvsnaatrvsrtgrsrwrdvsrnfmrr]
- activity in DMEM [1]: loses all activity in DMEM
- % α-helix [2]: 40%
- B. cereus MIC [3]: 2.8 µM
- IC50 [3]: 1750 nM
- MIC [4]: 0.75 µM (≈ 2.62 µg/mL)
- E. coli DH5a MIC ([4]; pH 7.2): 0.7 µM
- IC50 ([4]; pH 7.2): 300 nM
- IC50 [5]: 800 nM
- Salmonella MIC [5]: 1.38 µM
